Measurements from ChEMBL document CHEMBL4808148, “HDAC6 screening dataset using tau-based substrate in an enzymatic assay yields selective inhibitors and activators” (2021).
This is a selection; strong and weak results do not stand in their true shares.

What follows are compounds tested against T1, Protein deacetylase HDAC6 (Homo sapiens) (UniProt Q9UBN7). Settings: at 10 µM.
T1 sequence (whole entry): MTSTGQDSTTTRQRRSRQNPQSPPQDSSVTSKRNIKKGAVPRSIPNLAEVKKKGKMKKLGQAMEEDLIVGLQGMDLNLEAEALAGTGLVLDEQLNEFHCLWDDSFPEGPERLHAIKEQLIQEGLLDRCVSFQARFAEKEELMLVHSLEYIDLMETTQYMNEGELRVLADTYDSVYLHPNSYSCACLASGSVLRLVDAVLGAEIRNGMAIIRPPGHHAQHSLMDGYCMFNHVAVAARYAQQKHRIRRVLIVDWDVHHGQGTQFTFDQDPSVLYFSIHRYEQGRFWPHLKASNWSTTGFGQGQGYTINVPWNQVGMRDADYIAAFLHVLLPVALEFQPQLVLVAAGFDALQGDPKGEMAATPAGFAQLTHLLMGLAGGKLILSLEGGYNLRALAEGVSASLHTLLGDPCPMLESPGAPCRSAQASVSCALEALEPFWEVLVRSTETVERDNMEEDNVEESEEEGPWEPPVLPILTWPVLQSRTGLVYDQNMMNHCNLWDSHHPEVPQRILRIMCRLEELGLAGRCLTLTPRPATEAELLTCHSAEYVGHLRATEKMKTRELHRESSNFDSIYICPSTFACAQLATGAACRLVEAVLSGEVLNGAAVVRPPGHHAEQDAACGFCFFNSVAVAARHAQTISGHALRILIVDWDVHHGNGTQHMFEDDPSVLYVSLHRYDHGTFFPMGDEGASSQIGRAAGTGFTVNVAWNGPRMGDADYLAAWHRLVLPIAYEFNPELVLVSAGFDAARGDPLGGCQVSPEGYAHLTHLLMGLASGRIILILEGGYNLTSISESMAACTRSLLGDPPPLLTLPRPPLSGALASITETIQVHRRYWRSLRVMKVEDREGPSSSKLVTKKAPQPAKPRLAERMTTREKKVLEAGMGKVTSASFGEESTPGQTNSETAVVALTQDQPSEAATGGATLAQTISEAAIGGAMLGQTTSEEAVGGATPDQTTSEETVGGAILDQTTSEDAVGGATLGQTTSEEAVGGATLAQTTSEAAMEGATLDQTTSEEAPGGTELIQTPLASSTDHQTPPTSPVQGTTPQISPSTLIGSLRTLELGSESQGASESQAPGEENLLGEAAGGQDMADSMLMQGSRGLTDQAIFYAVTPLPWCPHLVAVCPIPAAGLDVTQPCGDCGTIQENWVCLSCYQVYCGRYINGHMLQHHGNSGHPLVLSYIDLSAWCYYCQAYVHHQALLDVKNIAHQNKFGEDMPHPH
For `CN(CCCl)CCCl`, the inhibition was 6.33%.
